We go through 1 compound from PMC4800182 (Frontiers in Microbiology, 2016).

The chains behind the UniProt entries cited, without tags or fusion partners. Residues count along the entry.
UniProt P62575, 54-1035: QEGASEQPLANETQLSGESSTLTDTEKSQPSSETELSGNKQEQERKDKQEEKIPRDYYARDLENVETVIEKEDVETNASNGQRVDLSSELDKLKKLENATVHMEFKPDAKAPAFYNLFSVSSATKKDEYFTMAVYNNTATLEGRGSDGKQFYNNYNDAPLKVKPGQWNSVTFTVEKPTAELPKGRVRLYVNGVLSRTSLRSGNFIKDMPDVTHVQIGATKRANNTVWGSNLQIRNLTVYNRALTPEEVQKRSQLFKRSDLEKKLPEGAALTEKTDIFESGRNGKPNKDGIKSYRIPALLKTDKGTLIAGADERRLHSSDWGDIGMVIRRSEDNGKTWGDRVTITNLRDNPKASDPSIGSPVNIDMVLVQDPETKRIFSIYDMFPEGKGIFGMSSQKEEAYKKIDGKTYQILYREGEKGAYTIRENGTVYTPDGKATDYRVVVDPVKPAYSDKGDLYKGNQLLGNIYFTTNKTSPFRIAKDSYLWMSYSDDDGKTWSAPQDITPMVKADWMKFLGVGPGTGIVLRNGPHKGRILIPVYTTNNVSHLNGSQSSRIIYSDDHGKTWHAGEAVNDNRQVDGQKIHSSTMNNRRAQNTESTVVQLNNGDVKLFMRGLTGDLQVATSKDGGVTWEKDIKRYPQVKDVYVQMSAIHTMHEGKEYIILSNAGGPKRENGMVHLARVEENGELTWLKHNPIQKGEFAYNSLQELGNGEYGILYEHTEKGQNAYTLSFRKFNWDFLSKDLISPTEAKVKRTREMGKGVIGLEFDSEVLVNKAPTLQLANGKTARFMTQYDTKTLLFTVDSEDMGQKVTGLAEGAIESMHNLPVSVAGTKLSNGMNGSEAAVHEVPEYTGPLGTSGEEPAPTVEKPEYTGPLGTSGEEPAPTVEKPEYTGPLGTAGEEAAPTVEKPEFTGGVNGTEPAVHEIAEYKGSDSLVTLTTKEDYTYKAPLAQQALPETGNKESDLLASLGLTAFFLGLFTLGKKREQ

The target in the assay is T1, rNanA (Streptococcus pneumoniae, UniProt P62575).
T1 construct: made in house; host or cells: E. coli
As to the kind of experiment: FL assay (MUNANA), inhibition of rNanA. The assay is classed as biochemical, Streptococcus pneumoniae DSM20566. Conditions: rNanA diluted 1:10,000; pH 6.5; MUNANA substrate; read-out: Inhibitory Concentration of NAIs against rNanA, FL assay. On the procedure: Activity of 10-fold dilutions (1:1,000 to 1:100,000) of rNanA and rNanB was determined with a fluorescence-based NA assay (FL assay) using the substrate 2-(4-methylumbelliferyl)-α-D-N-acetylneuraminic acid sodium salt hydrate (MUNANA, Sigma–Aldrich GmbH) as published ([Richter et al., 2015]). The activity of rNanB was additionally tested at pH 5. Relative FL units (RFU) were read using the microplate reader FLUOstar Omega (BMG Labtech GmbH, Ortenberg, Germany) and converted to 4-MU concentration (Sigma–Aldrich GmbH) according to the 4-MU standard curve (Supplementary Figure 1). Velocity (μM/min) and Km value (μM) for rNanA and rNanB were determined using eight MUNANA concentrations (3.13 to 400 μM) at pH 6.5. After 5 min the reaction was stopped, RFU were measured and converted to 4-MU concentrations according to the 4-MU standard curve. The Enzyme Kinetics Module of SigmaPlot 12.0 (Systat Software, San Jose, CA, USA) was applied to fit the data to the Michaelis–Menten equation using non-linear regression.
The NAI susceptibility of rNanA and rNanB was evaluated with FL assay (rNanA and rNanB diluted 1:10,000 in FL buffer; pH 6.5) and HA assay as published recently ([Richter et al., 2015]) with slight modification of the HA assay. […]

Molecules are shown by their SMILES.

For the compound `CC(=O)N[C@H]1[C@H]([C@H](O)[C@H](O)CO)OC(C(=O)O)=C[C@@H]1O` [DANA, N-acetyl-2,3-dehydro-2-deoxyneuraminic acid], the IC50 came to 17.7 ± 2 µM.
